Laboratory results from US9149540B2, “Polymer conjugate of folic acid or folic acid derivative” (Nippon Kayaku Kabushiki Kaisha, priority 2008, dated 2015).

Conditions: PBS solution, 37° C., absence of hydrolase; FIG. 1

With “PEG-Asp40(α,γ-Tyramine-PEM)-Ac [PEM_G-40]” the drug release rate was “the release rate is intermediate between the rate of the α-substituted form and the rate of the γ-substituted form”.
